In patent publication US20100249164A1, “MODULATION OF SLEEP WITH NR2B RECEPTOR ANTAGONISTS” (priority 2007, published 2010):

System: Sprague Dawley rats
Conditions: in vivo, po, 25 mg/kg

In the case of `Cc1ccc(COC(=O)N2CCC(CNc3ncccn3)CC2)cc1`, the “activity in preclinical rat sleep model” value is reported as “active”.
